In the assay the target is Protein G on µMACS Protein G microbeads (Group G Streptococci) (UniProt P06654). In words: immobilisation on µMACS Protein G microbeads.

“CD4-immunoglobulin G2 (CD4-IgG2), tetrameric CD4-based molecule (from UniProt P01730 26-204; P01730 26-203) (Fc fusion)”: the capacity of the microbeads (µg per ml of microbead suspension) was determined as 40.

The record behind these values is patent US20080274134A1.
